Assay results published in US20100286136A1, “DIHYDRONAPHTHYRIDINYL AND RELATED COMPOUNDS FOR USE IN TREATING OPHTHALMOLOGICAL DISORDERS” (priority 2009, published 2010).

Molecular target: T1, CCR2b (Homo sapiens, UniProt P41597)
T1 construct: host or cells: AequoScreen CCR2b cells
T1 sequence (P41597 1-360 isoform P41597-2): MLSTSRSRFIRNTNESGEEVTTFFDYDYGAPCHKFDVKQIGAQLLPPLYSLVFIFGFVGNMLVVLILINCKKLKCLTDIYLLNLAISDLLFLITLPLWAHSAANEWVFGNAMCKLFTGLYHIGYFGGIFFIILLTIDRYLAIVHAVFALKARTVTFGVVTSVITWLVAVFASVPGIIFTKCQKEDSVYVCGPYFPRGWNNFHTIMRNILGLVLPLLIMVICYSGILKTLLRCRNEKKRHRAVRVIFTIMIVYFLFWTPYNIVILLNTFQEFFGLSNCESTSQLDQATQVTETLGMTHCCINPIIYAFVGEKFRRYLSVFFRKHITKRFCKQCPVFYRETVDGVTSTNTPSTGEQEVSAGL
Test: AequoScreen CCR2b calcium flux assay, antagonist mode against reference agonist MCP-1
Assay type: cell-based
Conditions: AequoScreen CCR2b (FAST-060A) cells; inhibition of reference agonist MCP-1 at its EC80; read-out: IC50 (μM) Ca^++flux
Method: The biological activity of the compounds described herein can be evaluated using assays known in the art, such as the AequoScreen™ assay.
AequoScreen™ CCR2b (FAST-060A) cells grown to mid-log phase in culture media without antibiotics are detached with PBS-EDTA, centrifuged and resuspended in assay buffer (DMEM/HAM's F12 with HEPES, without phenol red+0.1% BSA protease free) at a concentration of 1×10^6 cells/mL. Cells are incubated at room temperature for at least 4 hours with coelenterazine h. Dose response curves are performed before testing. The reference agonist is MCP-1.
For agonist testing, 50 μL of cell suspension is mixed with 50 μL of test compound in a 96-well plate. The resulting emission of light is recorded using a Hamamatsu Functional Drug Screening System 6000 (FDSS 6000).
Following an incubation of 15 minutes after the first injection, 100 μL of the resulting cell suspension containing the test compound is mixed with 100 μL of the reference agonist in the 96 well test plate. The resulting emission of light is recorded using the same luminometer as for agonist testing.
Agonist activity of a test compound can be expressed as a percentage of the activity of the reference agonist at its EC100 concentration. Antagonist activity of a test compound can be expressed as a percentage of the inhibition of reference agonist activity at its EC80 concentration.

Substance: 6-((3-(Methoxymethyl)-3-(3-(trifluoromethyl)-5,6,7,8-tetrahydro-1,6-naphthyridine-6-carbonyl)pyrrolidin-1-yl)methyl)-3,5-dimethylbenzo[d]oxazol-2(3H)-one [Example 44]
- IC50: < 0.2 µM
